Results from patent US12606533B2, “3-phenylpropylamine derivative” (DAIICHI SANKYO COMPANY, LIMITED, priority 2023, dated 2026).

Protein sequences, listed by entry. Tags and fused reporters are not part of them.
UniProt Q13285, whole entry: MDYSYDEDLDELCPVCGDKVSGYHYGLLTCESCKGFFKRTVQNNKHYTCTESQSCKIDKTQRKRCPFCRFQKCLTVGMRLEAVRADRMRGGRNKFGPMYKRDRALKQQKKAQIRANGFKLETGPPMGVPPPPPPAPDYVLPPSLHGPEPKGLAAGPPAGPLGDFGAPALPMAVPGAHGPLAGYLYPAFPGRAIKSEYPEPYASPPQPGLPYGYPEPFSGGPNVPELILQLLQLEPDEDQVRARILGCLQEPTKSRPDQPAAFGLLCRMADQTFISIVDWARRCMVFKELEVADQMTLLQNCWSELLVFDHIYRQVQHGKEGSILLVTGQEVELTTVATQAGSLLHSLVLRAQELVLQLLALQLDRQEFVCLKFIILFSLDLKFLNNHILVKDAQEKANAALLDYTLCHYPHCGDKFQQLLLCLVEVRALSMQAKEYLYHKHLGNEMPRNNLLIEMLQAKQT

Target: SF-1 (Homo sapiens, UniProt Q13285)
Experiment: SF1 degradation induction in NCI-H295R SF-1-HiBiT cells (HiBiT DC50)
Settings: read-out: HiBiT DC50, 24 hr, concentration that induces 50% degradation of SF-1

## COc1ccc([C@]2(CCN(Cc3ccc([C@H]4CC[C@H](CN5CCN(C(=O)c6ccc7c(c6)n(C)c(=O)n7C6CCC(=O)NC6=O)CC5)CC4)cc3)CC(C)(C)C(F)(F)F)CCOC(C)(C)C2)cc1 (stereo partly shown)
  DC50: 5.3 nM
